# Antibody variant affinities, Ab-14 light chain, assay B

The target is the same throughout: PDVDLGDISGINAS, from the HR2 region of SARS-CoV-2 spike.

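The starting antibody came from a phage panning campaign against this peptide. The variants were designed computationally from a first round of random CDR variants and then made and measured. Their group label is 14L_Ctrl (Ctrl: baseline library sampled from a position-specific scoring matrix, with some repeated check sequences). Affinity was read by AlphaSeq, a pooled yeast mating assay with surface-displayed partners. After mating in shaken culture at 30 °C for 16 h, diploids were selected and their barcode pairs sequenced. Read counts were normalised to the haploid input and turned into Kd by a linear fit to BCL2-family pairs of known affinity, for each replicate. Each pool was mated in six replicate cultures.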

The variants keep the heavy chain, the linker and the frameworks of Ab-14 (scFv order VH, the linker GGGGSGGGGSGGGGS, VL).
VH: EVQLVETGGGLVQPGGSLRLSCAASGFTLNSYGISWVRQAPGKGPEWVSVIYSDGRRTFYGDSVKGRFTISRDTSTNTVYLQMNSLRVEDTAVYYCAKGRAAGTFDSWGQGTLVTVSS
VL: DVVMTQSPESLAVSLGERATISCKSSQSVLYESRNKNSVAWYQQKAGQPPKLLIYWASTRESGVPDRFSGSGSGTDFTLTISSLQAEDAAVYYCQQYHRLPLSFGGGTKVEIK

Positions count from residue 1 of the parent VL; E32Q puts Q in place of E.
Scale: log10 of Kd in nM, estimated from mating counts; low values are strong binders.
The mean shown is taken over the replicates in which the pair was detected.
Where no diploid with the target was found in that replicate, the entry reads "n.d.": below detection, most likely a poor binder, though not proof of it.
The authors' rule: three or more of the six replicates give a measured affinity, fewer mean a poor binder.
Nonspecific signal, from three strains lacking the peptide, appeared in 4% of pairings of all light chain designs, centred on 2.64 (5% of these signals below 1.59); values are not corrected for it. For each scFv, signals with the empty controls are counted beside the result, with their mean in brackets.
A sequence measured in both rounds can read differently, since the two assays cover different ranges.
The parent sequence was in this pool as ten entries: three were never detected, three once, and four in most replicates, with averages from 0.34 to 2.37.

{"changes": "E32Q+K36Q+T59K+Y97G", "log10 Kd (nM) by replicate": "n.d. / n.d. / n.d. / n.d. / n.d. / n.d.", "mean log10 Kd (nM)": "n.d.", "control signals": "0 of 18"}
{"changes": "S25M+Y31K+W56G", "log10 Kd (nM) by replicate": "0.09 / -0.11 / 0.07 / -0.06 / 0.06 / 0.04", "mean log10 Kd (nM)": "0.02", "control signals": "1 of 18 (2.71)"}
{"changes": "S25D+S28E", "log10 Kd (nM) by replicate": "n.d. / n.d. / n.d. / n.d. / n.d. / n.d.", "mean log10 Kd (nM)": "n.d.", "control signals": "0 of 18"}
{"changes": "S25I+S33A+W56H+L102N+S103C", "log10 Kd (nM) by replicate": "1.17 / 1.34 / 0.94 / 0.93 / 0.74 / 0.76", "mean log10 Kd (nM)": "0.98", "control signals": "0 of 18"}
{"changes": "L30F+S33G+R34M+W56K", "log10 Kd (nM) by replicate": "1.08 / 0.37 / 0.23 / -0.01 / 0.33 / 0.41", "mean log10 Kd (nM)": "0.40", "control signals": "0 of 18"}
{"changes": "Y97L+L102I", "log10 Kd (nM) by replicate": "n.d. / n.d. / n.d. / n.d. / n.d. / n.d.", "mean log10 Kd (nM)": "n.d.", "control signals": "0 of 18"}
{"changes": "L30D+Y31N", "log10 Kd (nM) by replicate": "1.88 / 1.17 / 1.38 / 1.67 / 1.31 / 1.59", "mean log10 Kd (nM)": "1.50", "control signals": "0 of 18"}
{"changes": "V29K+L30D+W56F+T59I", "log10 Kd (nM) by replicate": "1.92 / 1.67 / 2.25 / 2.55 / 2.19 / 1.35", "mean log10 Kd (nM)": "1.99", "control signals": "0 of 18"}
{"changes": "W56K+Q95V+Q96T+R99H+L102N", "log10 Kd (nM) by replicate": "n.d. / n.d. / n.d. / n.d. / n.d. / n.d.", "mean log10 Kd (nM)": "n.d.", "control signals": "0 of 18"}
{"changes": "S25M+S26Q+W56A", "log10 Kd (nM) by replicate": "-0.22 / -0.46 / -0.31 / -0.55 / -0.25 / -0.32", "mean log10 Kd (nM)": "-0.35", "control signals": "0 of 18"}
{"changes": "W56S+E61A+S103Q", "log10 Kd (nM) by replicate": "1.73 / 1.41 / 1.54 / 1.34 / 1.33 / 1.77", "mean log10 Kd (nM)": "1.52", "control signals": "1 of 18 (3.05)"}
{"changes": "Q27T+L30P+S103H", "log10 Kd (nM) by replicate": "n.d. / n.d. / n.d. / n.d. / n.d. / n.d.", "mean log10 Kd (nM)": "n.d.", "control signals": "0 of 18"}
{"changes": "W56H+R99V", "log10 Kd (nM) by replicate": "1.16 / 0.92 / 1.72 / 0.94 / 1.37 / 1.46", "mean log10 Kd (nM)": "1.26", "control signals": "0 of 18"}
{"changes": "S25I+W56G+S62R", "log10 Kd (nM) by replicate": "-0.03 / -0.08 / -0.17 / 0.00 / 0.03 / -0.01", "mean log10 Kd (nM)": "-0.04", "control signals": "1 of 18 (3.04)"}
{"changes": "Q27E+L30T+Y31W+H98L", "log10 Kd (nM) by replicate": "n.d. / n.d. / 1.95 / n.d. / n.d. / 2.43", "mean log10 Kd (nM)": "2.19", "control signals": "0 of 18"}
{"changes": "S26M", "log10 Kd (nM) by replicate": "n.d. / n.d. / n.d. / n.d. / n.d. / n.d.", "mean log10 Kd (nM)": "n.d.", "control signals": "0 of 18"}
{"changes": "S25I+Y31T+H98K", "log10 Kd (nM) by replicate": "0.55 / 0.88 / 0.47 / 0.10 / 0.67 / 0.96", "mean log10 Kd (nM)": "0.61", "control signals": "0 of 18"}
{"changes": "K24Y+S25C+H98V", "log10 Kd (nM) by replicate": "n.d. / n.d. / n.d. / n.d. / n.d. / n.d.", "mean log10 Kd (nM)": "n.d.", "control signals": "0 of 18"}
{"changes": "A57R+T59E+R99W", "log10 Kd (nM) by replicate": "n.d. / n.d. / n.d. / n.d. / n.d. / n.d.", "mean log10 Kd (nM)": "n.d.", "control signals": "0 of 18"}

Again, the first 2 entries without any signal:

changes	log10 Kd (nM) by replicate	mean log10 Kd (nM)	control signals
E32Q+K36Q+T59K+Y97G	n.d. / n.d. / n.d. / n.d. / n.d. / n.d.	n.d.	0 of 18
S25D+S28E	n.d. / n.d. / n.d. / n.d. / n.d. / n.d.	n.d.	0 of 18

Reference: Li et al. 2023, doi:10.1038/s41467-023-39022-2. File: FLAb, binding data.